Laboratory results taken from PMC11494886, “Discovery and design of molecular glue enhancers of CDK12–DDB1 interactions for targeted degradation of cyclin K” (RSC Chemical Biology, 2024).

Chains of the proteins cited; added tags and fusions are not shown.
UniProt Q9NYV4, whole entry: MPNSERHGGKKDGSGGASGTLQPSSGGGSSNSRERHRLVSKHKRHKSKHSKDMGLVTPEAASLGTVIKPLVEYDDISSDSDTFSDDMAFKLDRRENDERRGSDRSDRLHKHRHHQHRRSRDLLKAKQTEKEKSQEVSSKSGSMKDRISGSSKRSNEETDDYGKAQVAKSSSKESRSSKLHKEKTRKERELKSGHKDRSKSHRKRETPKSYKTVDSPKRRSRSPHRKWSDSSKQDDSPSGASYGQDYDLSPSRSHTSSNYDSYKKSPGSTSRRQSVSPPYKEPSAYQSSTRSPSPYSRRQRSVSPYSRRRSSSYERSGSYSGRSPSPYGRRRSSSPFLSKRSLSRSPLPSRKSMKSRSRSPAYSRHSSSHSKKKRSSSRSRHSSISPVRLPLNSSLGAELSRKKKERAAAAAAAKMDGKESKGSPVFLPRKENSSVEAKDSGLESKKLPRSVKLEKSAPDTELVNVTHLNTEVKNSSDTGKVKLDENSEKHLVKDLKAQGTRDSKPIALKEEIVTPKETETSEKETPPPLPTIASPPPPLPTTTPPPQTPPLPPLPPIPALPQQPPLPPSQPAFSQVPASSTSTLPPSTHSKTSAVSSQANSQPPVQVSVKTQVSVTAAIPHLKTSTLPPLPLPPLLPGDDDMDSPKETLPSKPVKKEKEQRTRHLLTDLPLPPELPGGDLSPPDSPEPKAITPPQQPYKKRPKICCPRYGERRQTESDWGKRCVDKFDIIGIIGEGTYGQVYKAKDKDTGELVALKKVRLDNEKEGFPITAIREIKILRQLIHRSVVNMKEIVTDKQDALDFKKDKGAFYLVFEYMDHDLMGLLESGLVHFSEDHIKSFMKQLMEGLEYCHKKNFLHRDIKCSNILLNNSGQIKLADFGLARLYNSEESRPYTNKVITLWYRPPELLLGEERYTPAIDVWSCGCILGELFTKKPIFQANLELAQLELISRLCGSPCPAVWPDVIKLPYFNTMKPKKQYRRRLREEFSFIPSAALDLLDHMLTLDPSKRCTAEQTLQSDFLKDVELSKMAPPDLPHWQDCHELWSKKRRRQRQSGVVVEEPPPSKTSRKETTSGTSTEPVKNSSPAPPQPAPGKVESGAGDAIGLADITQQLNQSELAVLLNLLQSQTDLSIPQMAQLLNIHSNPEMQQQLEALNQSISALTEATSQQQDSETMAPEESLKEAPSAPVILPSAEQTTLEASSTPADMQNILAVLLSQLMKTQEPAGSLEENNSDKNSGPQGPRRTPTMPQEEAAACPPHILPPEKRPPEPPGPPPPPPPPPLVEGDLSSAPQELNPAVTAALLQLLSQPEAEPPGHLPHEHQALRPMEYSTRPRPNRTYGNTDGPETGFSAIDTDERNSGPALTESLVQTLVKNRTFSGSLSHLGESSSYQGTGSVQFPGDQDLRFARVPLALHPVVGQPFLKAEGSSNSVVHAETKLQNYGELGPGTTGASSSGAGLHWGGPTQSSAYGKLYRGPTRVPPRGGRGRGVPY
UniProt O75909, whole entry partner: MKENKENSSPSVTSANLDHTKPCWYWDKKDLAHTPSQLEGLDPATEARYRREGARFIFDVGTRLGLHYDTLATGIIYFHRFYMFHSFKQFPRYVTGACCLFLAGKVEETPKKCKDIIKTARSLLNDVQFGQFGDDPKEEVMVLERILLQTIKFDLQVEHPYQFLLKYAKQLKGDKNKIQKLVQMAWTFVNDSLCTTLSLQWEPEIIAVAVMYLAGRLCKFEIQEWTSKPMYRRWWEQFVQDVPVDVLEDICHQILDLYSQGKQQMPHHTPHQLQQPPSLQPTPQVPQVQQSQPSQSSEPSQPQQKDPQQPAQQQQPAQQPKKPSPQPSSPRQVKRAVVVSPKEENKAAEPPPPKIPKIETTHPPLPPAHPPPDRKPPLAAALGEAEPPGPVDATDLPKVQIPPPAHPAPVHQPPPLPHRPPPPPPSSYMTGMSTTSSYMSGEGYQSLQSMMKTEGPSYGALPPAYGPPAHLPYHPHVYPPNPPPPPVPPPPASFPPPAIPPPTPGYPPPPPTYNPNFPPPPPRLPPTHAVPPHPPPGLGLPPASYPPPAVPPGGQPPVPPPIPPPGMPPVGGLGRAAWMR

Key:
HiBiT-tagged cyclin K = assay: HiBiT cyclin K degradation assay (DC50, Dmax); details: read-out: CCNK DC50; cell-based assay
CDK12 = CDK12 (Homo sapiens, UniProt Q9NYV4); assay: CDK12 functional (kinase inhibition) assay; format: biochemical; details: read-out: CDK12 IC50
MDA-MB231 = MDA-MB231 growth inhibition (GI50); format: cell-based, human; details: read-out: MDA-MB231 GI50

Cn1cc(-n2cnc3c(NCc4ccc(-c5ccccn5)cc4)nc(N4CCOCC4)nc32)cn1
DC50 (HiBiT-tagged cyclin K): > 5 µM | IC50 (CDK12): 2.6 µM | GI50 (MDA-MB231): 5.8 µM
